These are literature values, as cited in patent US20190175515A1, “CHOLESTERYL ESTER VESICLES LOADING PEPTIDES, PROTEINS AND NUCLEIC ACIDS INTO CHYLOMICRONS AND BODY CELLS” (priority 2016, published 2019).

For this data set, the system named is melanoma. Particulars: patients with melanoma; cited from earlier work.

In the case of high-dose IL-2, the “overall tumor response (OR) rate” value is listed as 16%.
